The test system of one assay is 143B cells. Nature of the assay: Wound healing scratch assay, 143B. The format is cell-based, human. As to conditions: 5 μM, 10 hours.
The next assay deals with MG63 cells. Nature of the assay: Wound healing scratch assay, MG63. The format is cell-based, human. As to conditions: 5 μM, 10 hours.
For another assay, the system named is HOS cells. The experiment in a line: Wound healing scratch assay, HOS. The format is cell-based, human. As to conditions: 5 μM, 10 hours.

Molecules are shown by their SMILES.

For `CC/C=C\C/C=C\C/C=C\C/C=C\CC1OC1C/C=C\CCC(=O)NCCO` (stereo not shown) [7,8-EDP-EA], the “wound healing: ratio of wound remaining in treatment to wound remaining in control” value (“wound healing: ratio of wound remaining” below) was “do not inhibit wound healing” in the assay on 143B cells, “a similar trend was seen” in the assay on MG63 cells and “not significant” in the assay with HOS cells. Besides, the total cell viability result in the assay on 143B metastatic OS cells is reported as “reduced total cell viability”.

Consider `CC/C=C\C/C=C\C/C=C\CC1OC1C/C=C\C/C=C\CCC(=O)NCCO` (stereo not shown) [10,11-EDP-EA, (4Z,7Z)-N-(2-hydroxyethyl)-9-(3-((2Z,5Z,8Z)-undeca-2,5,8-trien-1-yl)oxiran-2-yl)nona-4,7-dienamide], for which the figures for the “wound healing: ratio of wound remaining” value with 143B cells and in the assay on MG63 cells were “inhibits wound closure significantly” and “twice as much as the control”, respectively. In addition, the total cell viability entry in the assay with 143B metastatic OS cells is “reduced total cell viability”.

Regarding `CC/C=C\C/C=C\CC1OC1C/C=C\C/C=C\C/C=C\CCC(=O)NCCO` (stereo not shown) [13,14-EDP-EA], the “wound healing: ratio of wound remaining” value in the assay with 143B cells is on record as “do not inhibit wound healing”; in the assay on MG63 cells, “restricted at 10h but not at 6h”; in the assay on HOS cells, “not significant”. For the same molecule, the total cell viability entry in the assay on 143B metastatic OS cells is on record as “reduced total cell viability”.

`CC/C=C\CC1OC1C/C=C\C/C=C\C/C=C\C/C=C\CCC(=O)NCCO` (stereo not shown) [16,17-EDP-EA]: the total cell viability entry in the assay on 143B metastatic OS cells was “less effective”.

`CCC1OC1C/C=C\C/C=C\C/C=C\C/C=C\C/C=C\CCC(=O)NCCO` (stereo not shown) [19,20-EDP-EA]: the total cell viability result in the assay on 143B metastatic OS cells is recorded as “less effective”.

The values above are taken from article PMC7202735 (Journal of medicinal chemistry, 2018).
